Apparent affinities of Ab-91 variants for a coronavirus HR2 peptide

All variants were tested on one target, the spike HR2 peptide PDVDLGDISGINAS (SARS-CoV-2).

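In library AAYL51, one, two or three CDR residues were substituted; doubles and triples were drawn at random. The scFvs were displayed on barcoded MATa yeast, the peptide on MATalpha yeast. Mating (16 h, 30 °C) was followed by selection of diploids and sequencing of their barcodes. Scores were corrected for input abundance and mapped to Kd with protein pairs of known affinity run in the same pool. Mating was done three times.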

Ab-91 is the parent antibody, in scFv form: VL, then the linker GGGGSGGGGSGGGGS, then VH. The light chain is unchanged in all variants.
VL: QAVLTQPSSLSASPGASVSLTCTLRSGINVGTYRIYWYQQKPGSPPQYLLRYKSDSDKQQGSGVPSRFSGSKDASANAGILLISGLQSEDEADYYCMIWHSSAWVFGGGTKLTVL
VH: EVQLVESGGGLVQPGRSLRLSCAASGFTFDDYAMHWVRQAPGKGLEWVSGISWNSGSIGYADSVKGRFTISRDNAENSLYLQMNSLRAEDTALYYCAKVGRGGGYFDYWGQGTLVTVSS

Changes read parent residue, position, new residue, counted from the first residue of the VH shown. Numbers give log10(Kd / nM), so 0 is 1 nM and 3 is 1 µM. Smaller is tighter. The mean shown is taken over the replicates in which the pair was detected. "no signal" means that the variant was in the library but no mating with the target was seen in any replicate; the authors take this as a sign of poor binding, and no number exists.

changes | mean, log10 nM | replicates with signal
M34L A61T G103N | 4.88 | 3/3
G59P K65E V99N | 4.50 | 2/3
F27D S63T F106E | 3.69 | 2/3
W53G N54M D107M | 2.78 | 3/3
H35R R101T G102R | no signal | 0/3
D30R V99D Y108C | 4.63 | 1/3
G26Y G103W | no signal | 0/3
N54Y G56P I58F | 4.88 | 1/3
M34C G59V V99S | no signal | 0/3
F27W M34W G59K | 5.84 | 2/3
H35D A61H Y105H | 4.79 | 1/3
I51C G103Q F106S | no signal | 0/3
H35Y G100Y G103R | 4.26 | 1/3
G26C D31Y S55M | 4.54 | 1/3
S57D A61G G103I | 2.43 | 3/3
G56S G102Y Y105W | 3.69 | 1/3
I58V Y60W S63C | 3.86 | 2/3
G56Y A61R | 4.76 | 3/3
D31P R101I G102F | 2.86 | 1/3
S55Y S57L I58E | no signal | 0/3
M34H I51N G103I | 3.90 | 2/3
G26T Y32L Y105A | 4.92 | 1/3
G26C S52Q S63L | 4.46 | 3/3
V64I D107Y Y108P | 1.71 | 3/3
G59C D62K G100I | 5.36 | 2/3
H35G N54D S57M | 4.18 | 1/3
I58P V99I Y108W | no signal | 0/3
D30T S52A A61S | 1.00 | 3/3
G50R I58C V99H | 5.24 | 1/3
M34D G59N G103Q | 4.57 | 1/3
A33P W53I Y105D | 5.52 | 2/3
T28R I58P G59N | 4.72 | 2/3
N54K A61H V64N | no signal | 0/3
G50R V99R Y108P | 5.91 | 1/3
M34T Y60T V99N | 3.53 | 1/3
I51H N54H Y105T | 4.89 | 2/3
T28H S52W G102C | no signal | 0/3
A33R I58C | 1.86 | 3/3
K65C F106D Y108V | 4.76 | 3/3
D62E G100D Y108K | 4.81 | 2/3

Continued, with the values leading:

mean, log10 nM | replicates with signal | changes
4.45 | 1/3 | D30T G102K Y105W
no signal | 0/3 | G26L F29W S63K
3.42 | 3/3 | D30P S55G Y105N
4.33 | 1/3 | D30V I51T G100S
no signal | 0/3 | Y32P H35W G103R
no signal | 0/3 | S52N W53F Y105P
4.24 | 2/3 | G56W G104H D107E
no signal | 0/3 | F29L A33Q D62M
no signal | 0/3 | M34S W53H I58F
3.65 | 1/3 | T28H V99P Y108R
4.54 | 1/3 | F27W H35D D107M
no signal | 0/3 | F27C S63A V64S
1.23 | 3/3 | D31T V99L F106I
3.16 | 3/3 | A61M S63I Y108K
1.16 | 3/3 | W53M G100I
3.41 | 1/3 | D30A H35S G59R
no signal | 0/3 | D31H N54Q G100L
4.49 | 1/3 | S52I Y60L V99C
3.58 | 1/3 | H35R S52Y I58Q
4.80 | 1/3 | F27Y I58W F106E
5.05 | 1/3 | I58A Y60D G100Y
no signal | 0/3 | S52I G56I
no signal | 0/3 | S57Q G59L
3.65 | 1/3 | G56T Y60A D62P
3.05 | 1/3 | I51H W53I K65L
3.67 | 1/3 | D31R D107P Y108H
no signal | 0/3 | T28H Y32I G59W
no signal | 0/3 | S57G G100L G103A
3.00 | 1/3 | F29N D31I I51W
4.40 | 1/3 | D30V R101V G104H
3.60 | 1/3 | I51R K65D V99Y
5.07 | 2/3 | D30F R101T
6.11 | 1/3 | G26Q S57R K65S
no signal | 0/3 | T28G D30Q Y60H
5.00 | 3/3 | F29Q S63E
no signal | 0/3 | A33S G103Y
5.15 | 1/3 | D62N F106P Y108F
no signal | 0/3 | S57I F106D D107K
4.19 | 2/3 | H35G N54H G56T
4.95 | 1/3 | N54K S57N G100V

Three control strains display no target. For library AAYL51, 21% of the pairings with them gave a signal, with a median of 4.54 and one signal in twenty below 3.26, so weak values seen in few replicates may be background. Parent in this assay: reference entry 1.86, copy in this library 0.88.

Reference: Engelhart et al. 2022, doi:10.1038/s41597-022-01779-4. File: FLAb, binding data.